Publication PMC7209954, “Proteomic analysis of haem-binding protein from Arabidopsis thaliana and Cyanidioschyzon merolae” (Philosophical Transactions of the Royal Society B: …, 2020)

The chains behind the UniProt entries cited, without tags or fusion partners. Residues count along the entry.
UniProt M1VD99, 1-561: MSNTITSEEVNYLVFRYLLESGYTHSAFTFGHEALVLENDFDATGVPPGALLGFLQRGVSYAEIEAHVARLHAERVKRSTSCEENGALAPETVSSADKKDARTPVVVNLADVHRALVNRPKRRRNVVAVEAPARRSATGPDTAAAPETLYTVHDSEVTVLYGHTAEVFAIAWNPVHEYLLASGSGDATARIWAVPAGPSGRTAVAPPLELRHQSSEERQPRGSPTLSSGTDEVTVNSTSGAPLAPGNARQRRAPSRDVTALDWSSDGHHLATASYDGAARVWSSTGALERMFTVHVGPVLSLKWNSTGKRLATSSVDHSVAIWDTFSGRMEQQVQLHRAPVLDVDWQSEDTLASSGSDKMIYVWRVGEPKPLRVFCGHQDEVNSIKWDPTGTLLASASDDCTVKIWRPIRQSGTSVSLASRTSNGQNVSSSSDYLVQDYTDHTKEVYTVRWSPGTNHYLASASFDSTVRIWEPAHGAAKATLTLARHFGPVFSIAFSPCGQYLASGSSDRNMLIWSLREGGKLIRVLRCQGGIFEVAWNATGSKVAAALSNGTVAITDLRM

Key:
[1] = target: T1, CML100C (HDA3 complex subunit; CML100C-TF) (Cyanidioschyzon merolae, UniProt M1VD99); test: UV-visible difference absorbance titration at […] nm, one-site fit; format: binding
T1 construct: gene CYME_CML100C

[2] = target: T2, SRT1 (At5g55760), NAD-dependent protein deacetylase SRT1 (Arabidopsis thaliana, UniProt Q9FE17); test: as above; format: binding
T2 construct: full-length cDNA in pET24, N-terminal His-tag kept, E. coli BL21(DE3), 52 kDa
T2 sequence (Q9FE17 1-473): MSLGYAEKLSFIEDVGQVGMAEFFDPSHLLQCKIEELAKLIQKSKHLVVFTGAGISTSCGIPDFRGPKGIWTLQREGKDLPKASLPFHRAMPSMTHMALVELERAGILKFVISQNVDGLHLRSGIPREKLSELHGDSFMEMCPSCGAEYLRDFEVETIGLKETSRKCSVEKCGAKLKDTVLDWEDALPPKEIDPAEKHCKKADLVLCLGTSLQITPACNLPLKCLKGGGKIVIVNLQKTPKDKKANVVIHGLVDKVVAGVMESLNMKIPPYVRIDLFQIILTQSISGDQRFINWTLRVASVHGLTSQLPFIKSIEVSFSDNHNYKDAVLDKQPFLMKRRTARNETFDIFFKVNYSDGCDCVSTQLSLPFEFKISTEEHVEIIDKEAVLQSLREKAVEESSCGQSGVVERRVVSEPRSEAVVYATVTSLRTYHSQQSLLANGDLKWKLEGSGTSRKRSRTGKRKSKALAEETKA

Kd [1]: 1330 ± 250 nM
Kd [2]: 680 ± 400 nM
Compound: C=CC1=C(C)C2=Cc3c(C=C)c(C)c4[n]3[Fe]([Cl])[n]3c(c(C)c(CCC(=O)O)c3=CC3=NC(=C4)C(C)=C3CCC(=O)O)=CC1=N2 [haemin]
